# Tested on: LNCaP
# Assay: Inhibition of prostate specific antigen secretion in human LNCAP cells expressing androgen receptor in presence of charcoal stripped serum
# Format: functional, cell-based
# Summary of the method: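 LNCaP/AR cells were made by viral infection with an AR cDNA to express 3–5 fold higher AR levels, mimicking CRPC. They were assayed in charcoal-stripped serum to mimic androgen depletion. Read-out was PSA level, with DMSO as the vehicle.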
smiles,measurement,value
CNC(=O)c1ccc(N2C(=S)N(c3ccc(C#N)c(C(F)(F)F)c3)C(=O)C2(C)C)cc1F,inhibition,Dose-dependent effect

# — ChEMBL document CHEMBL1155462, “Structure-activity relationship for thiohydantoin androgen receptor antagonists for castration-resistant prostate cancer (CRPC)” (J Med Chem, 2010)
